Results published in ChEMBL document CHEMBL1149217, “3-trifluoromethyl-4-nitro-5-arylpyrazoles are novel K(ATP) channel agonists” (Bioorg Med Chem Lett, 2004).
pEC50: −log10 of the molar value.

The chains behind the UniProt entries cited, without tags or fusion partners. Where a name states a change or a piece, a line headed by the entry shows the natural chain unless it says otherwise.
UniProt Q14654: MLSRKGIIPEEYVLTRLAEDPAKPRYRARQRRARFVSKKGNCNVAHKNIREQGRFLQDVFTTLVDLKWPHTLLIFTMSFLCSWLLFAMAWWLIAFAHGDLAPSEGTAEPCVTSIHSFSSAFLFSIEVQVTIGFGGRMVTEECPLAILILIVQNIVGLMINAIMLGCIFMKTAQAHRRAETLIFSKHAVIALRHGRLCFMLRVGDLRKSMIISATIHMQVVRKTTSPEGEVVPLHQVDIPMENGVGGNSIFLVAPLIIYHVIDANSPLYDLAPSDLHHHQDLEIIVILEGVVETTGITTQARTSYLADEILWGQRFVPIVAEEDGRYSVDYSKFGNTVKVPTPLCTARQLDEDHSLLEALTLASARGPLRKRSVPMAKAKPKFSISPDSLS
UniProt Q09428: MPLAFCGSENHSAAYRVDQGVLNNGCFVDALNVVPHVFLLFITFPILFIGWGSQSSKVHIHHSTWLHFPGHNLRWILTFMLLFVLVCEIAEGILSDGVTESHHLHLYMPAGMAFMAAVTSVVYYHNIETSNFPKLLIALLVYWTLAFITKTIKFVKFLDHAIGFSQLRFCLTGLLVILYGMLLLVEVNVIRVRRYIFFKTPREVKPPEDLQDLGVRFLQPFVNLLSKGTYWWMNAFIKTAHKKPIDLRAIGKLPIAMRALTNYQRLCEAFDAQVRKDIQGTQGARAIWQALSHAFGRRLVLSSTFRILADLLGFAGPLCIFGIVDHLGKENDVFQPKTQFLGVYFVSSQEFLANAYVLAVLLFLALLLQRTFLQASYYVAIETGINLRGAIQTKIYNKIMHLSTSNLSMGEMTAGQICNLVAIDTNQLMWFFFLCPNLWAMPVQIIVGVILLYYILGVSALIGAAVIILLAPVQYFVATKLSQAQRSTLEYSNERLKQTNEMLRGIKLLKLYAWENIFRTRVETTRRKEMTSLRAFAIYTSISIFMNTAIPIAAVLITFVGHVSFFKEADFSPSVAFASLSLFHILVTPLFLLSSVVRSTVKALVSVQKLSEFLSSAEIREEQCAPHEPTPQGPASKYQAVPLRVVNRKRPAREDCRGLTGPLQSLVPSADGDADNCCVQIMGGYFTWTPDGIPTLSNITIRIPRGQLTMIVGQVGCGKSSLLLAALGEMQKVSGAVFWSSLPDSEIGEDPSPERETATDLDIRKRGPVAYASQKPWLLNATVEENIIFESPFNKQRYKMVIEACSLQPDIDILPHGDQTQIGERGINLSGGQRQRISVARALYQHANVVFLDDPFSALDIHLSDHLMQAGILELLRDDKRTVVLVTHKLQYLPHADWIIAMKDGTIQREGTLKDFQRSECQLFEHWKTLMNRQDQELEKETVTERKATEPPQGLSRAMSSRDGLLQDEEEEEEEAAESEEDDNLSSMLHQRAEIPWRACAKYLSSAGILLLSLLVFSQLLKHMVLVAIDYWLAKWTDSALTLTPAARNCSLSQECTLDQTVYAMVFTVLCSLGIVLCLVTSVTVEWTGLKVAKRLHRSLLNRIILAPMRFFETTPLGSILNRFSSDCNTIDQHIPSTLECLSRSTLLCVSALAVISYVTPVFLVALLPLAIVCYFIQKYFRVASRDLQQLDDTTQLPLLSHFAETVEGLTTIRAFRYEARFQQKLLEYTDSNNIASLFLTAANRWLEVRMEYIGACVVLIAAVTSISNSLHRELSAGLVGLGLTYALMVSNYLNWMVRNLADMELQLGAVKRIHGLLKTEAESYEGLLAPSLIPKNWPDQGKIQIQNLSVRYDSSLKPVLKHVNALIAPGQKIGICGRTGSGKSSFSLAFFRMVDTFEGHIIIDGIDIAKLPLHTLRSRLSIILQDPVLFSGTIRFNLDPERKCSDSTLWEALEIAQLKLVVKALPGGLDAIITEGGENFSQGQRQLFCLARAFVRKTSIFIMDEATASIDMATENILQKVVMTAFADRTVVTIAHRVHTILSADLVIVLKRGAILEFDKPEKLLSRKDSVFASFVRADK

Target: Sulfonylurea receptor 1, Kir6.2 (Homo sapiens, UniProt Q14654+Q09428)
Experiment: […] of human KATP (SUR1/Kir6.2) channel expressed in Xenopus oocytes
Conditions: oocyte

O=[N+]([O-])c1ccc(-c2n[nH]c(C(F)(F)F)c2[N+](=O)[O-])c([N+](=O)[O-])c1 gave a pEC50 of 7.15.
